A short description of this assay: Inhibition of [3H](+)-pentazocine binding to sigma receptor of guinea pig brain.

The source of these data is BindingDB's records for doi:10.1021/jm00045a022 (National Institute of Diabetes and Digestive and Kidney …, 1994).

For the molecule `CN1CC[C@@]2(c3cccc(O)c3)CC(=O)C(=Cc3ccc(Cl)c(Cl)c3)[C@@H]1C2`, the affinity, expressed as Ki, was 32 nM. Regarding `CN1CC[C@@]2(c3cccc(O)c3)CC(=O)C(=Cc3ccc(Cl)c(Cl)c3)[C@H]1C2`, the Ki (commonly the equilibrium dissociation constant of an inhibitor or competing ligand from its target) stood at 3200 nM.
